{"source": "patent EP0549264A1", "about": "“Purified para-nitrobenzyl esterase from bacillus” (OKLAHOMA STATE UNIVERSITY, priority 1991, dated 1993)", "biological_target": "T1, PNB esterase (Bacillus subtilis, UniProt P37967)", "T1 construct": "A culture of Bacillus subtilis NRRL B-8079 was harvested and frozen by conventional methods; made in house; host or cells: Bacillus subtilis NRRL B-8079 (natural producer; enzyme purified from cell-free extract)", "T1 sequence (P37967 1-489)": "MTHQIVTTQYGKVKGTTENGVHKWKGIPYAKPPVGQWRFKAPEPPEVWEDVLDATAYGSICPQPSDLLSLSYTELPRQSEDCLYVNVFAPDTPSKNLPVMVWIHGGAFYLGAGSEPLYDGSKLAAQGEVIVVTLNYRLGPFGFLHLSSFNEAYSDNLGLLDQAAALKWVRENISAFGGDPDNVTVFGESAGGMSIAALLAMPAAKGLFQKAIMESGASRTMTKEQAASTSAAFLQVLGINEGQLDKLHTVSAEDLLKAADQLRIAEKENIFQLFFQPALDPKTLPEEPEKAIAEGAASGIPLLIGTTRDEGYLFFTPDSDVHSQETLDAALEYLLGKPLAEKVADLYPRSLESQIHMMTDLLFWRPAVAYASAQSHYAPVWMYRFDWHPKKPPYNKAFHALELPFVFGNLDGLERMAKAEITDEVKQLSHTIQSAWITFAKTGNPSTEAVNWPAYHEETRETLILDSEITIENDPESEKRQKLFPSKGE", "assay": "PNB esterase activity assay (HPLC, method of Example 1D), effect of inhibitors", "assay_type": "biochemical"}
{"smiles": "O=S(=O)(F)Cc1ccccc1", "note": "[Phenylmethylsulfonylfluoride]", "values": [{"measurement": "Inhibition (%)", "value": 100, "unit": "%"}]}
